# AlphaSeq binding of Ab-14 heavy chain variants to a spike HR2 peptide

Data: MIT Lincoln Laboratory AlphaSeq set, Engelhart et al. 2022, doi:10.1038/s41597-022-01779-4, as distributed in FLAb.

Target: peptide PDVDLGDISGINAS, taken from heptad repeat 2 (HR2) of SARS-CoV-2 spike.

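The starting antibody came from a phage panning campaign against this peptide. Library AAYL49 holds single substitutions and randomly drawn double and triple substitutions in the CDRs. Affinity was read by AlphaSeq, a pooled yeast mating assay with surface-displayed partners. Binding brings cells together so that they mate, and sequencing counts the barcode pairs among the diploids. Scores were corrected for input abundance and mapped to Kd with protein pairs of known affinity run in the same pool. Mating was done three times.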

The variants keep the light chain, the linker and the frameworks of Ab-14 (scFv order VH, a (GGGGS)3 linker, VL).
VH: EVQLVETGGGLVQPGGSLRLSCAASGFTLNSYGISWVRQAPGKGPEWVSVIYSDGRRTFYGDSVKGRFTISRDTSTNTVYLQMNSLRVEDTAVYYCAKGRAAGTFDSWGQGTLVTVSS
VL: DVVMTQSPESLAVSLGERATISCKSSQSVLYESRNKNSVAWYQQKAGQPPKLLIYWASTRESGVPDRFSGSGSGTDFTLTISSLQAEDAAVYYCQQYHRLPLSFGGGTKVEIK

Positions count from residue 1 of the parent VH; F27P puts P in place of F.
Values are log10 of the apparent Kd in nM; lower means stronger binding.
A mean of the replicates is given; it leaves out those without a signal.
An entry "n.d." has no value in the source: the pair was not observed among the diploids in that replicate. This suggests poor binding but is not conclusive.
Nonspecific signal, from three strains lacking the peptide, appeared in 15% of pairings of library AAYL49, centred on 4.06 (5% of these signals below 2.83); values are not corrected for it. The control count says in how many pairings with the empty strains this scFv gave a signal, with their mean in brackets.
In this assay the parent's reference entry averaged 0.65; its copy inside this library read 4.11 (one replicate of three).

| changes | log10 Kd (nM) by replicate | log10 Kd (nM), mean | control signals |
|---|---|---|---|
| F27P/T28G/G33Y | n.d. / n.d. / n.d. | n.d. | 2 of 9 (3.47) |
| Y60W/D62W/D106F | 3.78 / n.d. / 4.56 | 4.17 | 4 of 9 (4.25) |
| N30L/S35Y/V50E | n.d. / n.d. / n.d. | n.d. | 0 of 9 |
| R56W/V64A/S107T | 2.64 / 3.80 / 2.70 | 3.05 | 1 of 9 (4.22) |
| I51V/D54K/G61S | n.d. / n.d. / n.d. | n.d. | 1 of 9 (2.71) |
| Y60V/A102V | n.d. / n.d. / n.d. | n.d. | 1 of 9 (3.57) |
| L29T/R56P/F105K | n.d. / n.d. / n.d. | n.d. | 1 of 9 (3.41) |
| A101V/G103Y/S107G | 0.77 / 0.91 / 0.81 | 0.83 | 1 of 9 (3.91) |
| I34K/S53C/T58C | n.d. / n.d. / n.d. | n.d. | 0 of 9 |
| S31I/D54C/G103D | n.d. / n.d. / n.d. | n.d. | 0 of 9 |
| Y60I/D62F/G99C | n.d. / n.d. / n.d. | n.d. | 0 of 9 |
| Y32R/V50I/T104P | n.d. / n.d. / n.d. | n.d. | 2 of 9 (3.27) |
| S53L/T58L/D62A | n.d. / n.d. / n.d. | n.d. | 1 of 9 (2.37) |
| T28V/I34R/D54F | n.d. / n.d. / n.d. | n.d. | 0 of 9 |
| I51S/G55I/K65V | n.d. / 3.78 / 4.86 | 4.32 | 1 of 9 (4.57) |
| F27T/L29E/R56Q | n.d. / 3.99 / 4.70 | 4.35 | 4 of 9 (4.65) |
| S35P/S53F/R100T | n.d. / 3.36 / n.d. | 3.36 | 0 of 9 |
| N30H/F59K/S63H | n.d. / 5.23 / n.d. | 5.23 | 3 of 9 (4.77) |
| S35D/Y60L/R100Q | n.d. / 3.43 / n.d. | 3.43 | 2 of 9 (4.58) |
| T28A/I51Y/Y60D | n.d. / 5.38 / n.d. | 5.38 | 4 of 9 (4.41) |
| Y32C/I34L/D62G | 2.96 / n.d. / n.d. | 2.96 | 2 of 9 (4.09) |
| F59L/D62Y | n.d. / n.d. / n.d. | n.d. | 1 of 9 (3.38) |
| V50W/D62F/F105A | n.d. / n.d. / n.d. | n.d. | 0 of 9 |
| G55F/Y60K/D62H | 2.82 / n.d. / n.d. | 2.82 | 0 of 9 |
| T28Y/G61N | 3.44 / 3.61 / 5.27 | 4.11 | 3 of 9 (4.94) |
| F59D/F105P | 3.33 / 3.68 / 3.73 | 3.58 | 3 of 9 (3.39) |
| Y52N/G103K | n.d. / n.d. / n.d. | n.d. | 0 of 9 |
| Y52T/R57P/G61P | n.d. / 3.76 / n.d. | 3.76 | 3 of 9 (3.58) |
| V64Y/A101N/G103V | n.d. / n.d. / n.d. | n.d. | 0 of 9 |
| V50W/Y60D/F105P | n.d. / n.d. / n.d. | n.d. | 1 of 9 (4.11) |
| G26A/G55E/Y60E | n.d. / n.d. / n.d. | n.d. | 0 of 9 |
| V50T/K65L/D106F | n.d. / n.d. / n.d. | n.d. | 0 of 9 |
| F27N/N30H/S107F | n.d. / n.d. / n.d. | n.d. | 1 of 9 (4.06) |
| S31F/R57I/T58R | 4.85 / 3.12 / n.d. | 3.99 | 2 of 9 (4.17) |
| V50M/Y52P/A101E | 3.69 / n.d. / n.d. | 3.69 | 0 of 9 |
| L29N/S31P/I51T | n.d. / n.d. / n.d. | n.d. | 2 of 9 (2.66) |
| Y52F/G55F/K65T | n.d. / 3.52 / n.d. | 3.52 | 0 of 9 |
| V50M/I51L/G55D | n.d. / 2.58 / n.d. | 2.58 | 2 of 9 (3.96) |

A selection of 6 entries from above:

{"changes": "Y52F/G55F/K65T", "log10 Kd (nM) by replicate": "n.d. / 3.52 / n.d.", "log10 Kd (nM), mean": "3.52", "control signals": "0 of 9"}
{"changes": "L29N/S31P/I51T", "log10 Kd (nM) by replicate": "n.d. / n.d. / n.d.", "log10 Kd (nM), mean": "n.d.", "control signals": "2 of 9 (2.66)"}
{"changes": "R56W/V64A/S107T", "log10 Kd (nM) by replicate": "2.64 / 3.80 / 2.70", "log10 Kd (nM), mean": "3.05", "control signals": "1 of 9 (4.22)"}
{"changes": "Y60W/D62W/D106F", "log10 Kd (nM) by replicate": "3.78 / n.d. / 4.56", "log10 Kd (nM), mean": "4.17", "control signals": "4 of 9 (4.25)"}
{"changes": "F27T/L29E/R56Q", "log10 Kd (nM) by replicate": "n.d. / 3.99 / 4.70", "log10 Kd (nM), mean": "4.35", "control signals": "4 of 9 (4.65)"}
{"changes": "Y60I/D62F/G99C", "log10 Kd (nM) by replicate": "n.d. / n.d. / n.d.", "log10 Kd (nM), mean": "n.d.", "control signals": "0 of 9"}